Laboratory results taken from US20220213145A1 (Bicycle, published 2022).

B1: BCY7164 (peptide)
peptide: ACIEEXQYCFADPYXCA
modifications: [PEG3]-ACIEE-Sar-QYCFADPY[Nle]CA; fluorescein-labelled; cyclised on TATA
notes: also called [PEG3]-(74-01-04) Sar4 Nle12
B2: BCY7165 (peptide)
peptide: ACIEEKQYCFADPYXCA
modifications: [PEG3]-ACIEE-DLys-QYCFADPY[Nle]CA; fluorescein-labelled; cyclised on TATA
notes: also called [PEG3]-(74-01-04) D-Lys4 Nle12
B3: BCY7172 (peptide)
peptide: ACIEEXQYCFADPYXCA
modifications: [PEG3]-ACIEE-MeDala-QYCFADPY[Nle]CA; fluorescein-labelled; cyclised on TATA
notes: also called [PEG3]-(74-01-04) N-Me-D-Ala4 Nle12
B4: BCY7173 (peptide)
peptide: ACIEEXQYCFADPYXCA
modifications: [PEG3]-ACIEE-Aib-QYCFADPY[Nle]CA; fluorescein-labelled; cyclised on TATA
notes: also called [PEG3]-(74-01-04) Aib4 Nle12

Target: T1, human CD137 protein (direct binding assay) (human, UniProt Q07011 24-186, limits assumed)
T1 construct: Soluble CD137 protein titrated from 3 uM in the fluorescence polarisation assay; also called hCD137; TNFRSF9
T1 sequence (looked up): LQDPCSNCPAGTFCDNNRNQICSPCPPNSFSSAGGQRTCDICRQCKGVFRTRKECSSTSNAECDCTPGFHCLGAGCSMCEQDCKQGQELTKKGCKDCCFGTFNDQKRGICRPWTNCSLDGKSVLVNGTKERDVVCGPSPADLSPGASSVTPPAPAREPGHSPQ
Assay: FP direct binding

Going from CIEEGQYCFADKYMC (Ac-CIEEGQYCFADK(Peg12)YMC; fluorescein-labelled; cyclised on TATA, also called Ac-(74-01-04)Lys10(PEG12)) [BCY7247] to ACIEEGQYCYRDMYMCA ([Ac]ACIEEGQYCYRDMYMCA-Sar6-K(Fl); fluorescein-labelled; cyclised on TATA, also called Ac-(74-01-00)-Sar6-K(Fl)) [BCY634], the Kd rises from 239 nM to 1380 nM (5.8-fold).

Compared with CIEEGQYCFADPKMC (Ac-CIEEGQYCFADPK(Peg12)MC; fluorescein-labelled; cyclised on TATA, also called Ac-(74-01-04)Lys11(PEG12)) [BCY7248], CIEEGQYCFADPYKC (Ac-CIEEGQYCFADPYK(Peg12)C; fluorescein-labelled; cyclised on TATA, also called Ac-(74-01-04)Lys12(PEG12)) [BCY7249] is 2.6-fold lower in Kd: 744 nM for the first, 288 nM for the second.

Compared with ACIEEGQYCYADHQLCA (ACIEEGQYCYADHQLCA-Sar6-K; fluorescein-labelled; cyclised on TATA, also called (74-01-05)-Sar6-K) [BCY642], ACIEEGQYCYADPYLCSVG (ACIEEGQYCYADPYLCSVG-Sar6-K; fluorescein-labelled; cyclised on TATA, also called (74-01-09-T03)-Sar6-K(Fl)) [BCY647] is 1.6-fold higher in Kd: 246 nM for the first, 392 nM for the second. The first binds more tightly here.

Compared with ACIEEGQYCYADPYLCSVG ((Fl)G-Sar5-ACIEEGQYCYADPYLCSVG; fluorescein-labelled; cyclised on TATA, also called (B-Ala)-Sar5-(74-01-09-T03)) [BCY648], ACDIGPPYCYRDMYMCA (ACDIGPPYCYRDMYMCA-Sar6-K; fluorescein-labelled; cyclised on TATA, also called (74-01-16)-Sar6-K) [BCY655] is 5.9-fold higher in Kd: 228 nM for the first, 1340 nM for the second.

ACLDPGPFCFADPYMCA (ACLDPGPFCFADPYMCA-Sar6-K; fluorescein-labelled; cyclised on TATA, also called (74-01-19-N002)-Sar6-K) [BCY7251] and ACLDEGPYCFADPYFCA (ACLDEGPYCFADPYFCA-Sar6-K; fluorescein-labelled; cyclised on TATA, also called (74-01-20-N002)-Sar6-K) [BCY7253] are within 1.5-fold of each other in Kd: 193 nM for the first, 183 nM for the second.

ACIEEGQYCYADPYMCA ([B-Ala]-Sar5-ACIEEGQYCYADPYMCA; fluorescein-labelled; cyclised on TATA, also called (B-Ala)-Sar5-(74-01-01)) [BCY635] and ACINEGPYCFADPYMCA (ACINEGPYCFADPYMCA-Sar6-K; fluorescein-labelled; cyclised on TATA, also called (74-01-21-N002)-Sar6-K) [BCY7255] are within 1.5-fold of each other in Kd: 126 nM for the first, 136 nM for the second.

ACIEQGPFCFADPYMCA (ACIEQGPFCFADPYMCA-Sar6-K; fluorescein-labelled; cyclised on TATA, also called (74-01-22-N002)-Sar6-K) [BCY7257] and ACVEEGPFCFADPYYCA (ACVEEGPFCFADPYYCA-Sar6-K; fluorescein-labelled; cyclised on TATA, also called (74-01-23-N002)-Sar6-K) [BCY7259] are within 1.5-fold of each other in Kd: 109 nM for the first, 105 nM for the second.

Compared with ACLDEGPFCFSDPYMCA (ACLDEGPFCFSDPYMCA-Sar6-K; fluorescein-labelled; cyclised on TATA, also called (74-01-24-N002)-Sar6-K) [BCY7261], ACDEWGLFCIPHSDCA ([B-Ala]-Sar5-ACDEWGLFCIPHSDCA; fluorescein-labelled; cyclised on TATA, also called (B-Ala)-Sar5-(74-02-00)) [BCY657] is 8-fold higher in Kd: 453 nM for the first, 3620 nM for the second.

First: ACDEWGLYCFAHPDCA (ACDEWGLYCFAHPDCA-Sar6-K; fluorescein-labelled; cyclised on TATA, also called (74-02-01)-Sar6-K) [BCY659]
Second: ACLDPGPYCYADPYMCTFH (ACLDPGPYCYADPYMCTFH-Sar6-K; fluorescein-labelled; cyclised on TATA, also called (74-13-00-T02)-Sar6-K) [BCY7119]
The Kd of the first is 7.2-fold higher: 1040 nM for the first, 144 nM for the second. The second binds more tightly here.

First: ACIEPGPFCYADPYMCNRV (G-Sar5-ACIEPGPFCYADPYMCNRV; fluorescein-labelled; cyclised on TATA, also called (B-Ala)-Sar5-(74-19-00-T01)) [BCY661]
Second: ACLEPGPYCYADPYMCTHL (ACLEPGPYCYADPYMCTHL-Sar6-K; fluorescein-labelled; cyclised on TATA, also called (74-20-00-T01)-Sar6-K) [BCY7120]
The Kd of the first is 2.6-fold higher: 412 nM for the first, 160 nM for the second. The second binds more tightly here.

Binder ACLPPGPYCFPDPYFCA (ACLPPGPYCFPDPYFCA-Sar6-K; fluorescein-labelled; cyclised on TATA, also called (74-22-03-N004)-Sar6-K) [BCY7122] has a Kd of 147 nM.

Target: T1, human CD137 protein (direct binding …)
Assay: FP direct binding
Remark: another data set of the same source

Compared with ACIEEGQYCFADPYICA ([PEG3]ACIEEGQYCFADPYICA; fluorescein-labelled; cyclised on TATA, also called [PEG3]-(74-01-04)Ile12) [BCY7212], ACIEEGQYCFADPYFCA ([PEG3]ACIEEGQYCFADPYFCA; fluorescein-labelled; cyclised on TATA, also called [PEG3]-(74-01-04) Phe12) [BCY7214] is 2.8-fold lower in Kd: 140 nM for the first, 50.1 nM for the second. The second binds more tightly here.

Compared with B1, B2 is 14-fold lower in Kd: 326 nM for the first, 24 nM for the second.

B3 and B4 are within 1.5-fold of each other in Kd: 546 nM for the first, 414 nM for the second.
